From patent publication US12339285B2, “Method for estimating therapeutic efficacy” (Konica Minolta, Inc., priority 2017, dated 2025)

Tests used:
[1] = tested on: ER; assay: PID fluorescent immunostaining of ER in tumor tissue of PDX mice given trastuzumab; format: in vivo, human; conditions: PDX (SCID) mice, trastuzumab 15 mg/kg tail i.v. once every 4 days, 4 times
[2] = tested on: breast cancer cells of patients transplanted in SCID mice; assay: Tumor size in PDX mice transplanted with breast cancer cells, trastuzumab; format: in vivo; conditions: PDX mice corresponding to breast cancer patient A; trastuzumab 15 mg/kg tail i.v. once every 4 days, 4 times
Description: Each of breast cancer tissues of five breast cancer patients (A to E) was subjected to exhaustive gene analysis, and biomarkers were identified on the basis of obtained genetic mutation information. The identified biomarkers (specific biomarkers) were HER2 and ER. […] The volume of tumor was measured before and after administration, and a tissue section (tumor tissue) was collected from each of the killed mice at each time point before initial administration and after 1 week, 2 weeks, 3 weeks, and 4 weeks from initial administration. Each of the collected tissue sections was subjected to formalin fixation and paraffin embedding according to conventional methods, and was further sliced to prepare two sample slides per mouse killed at each time point.

In the case of trastuzumab, the “PID score (ER)” value ([1]; breast cancer patient A, 1 week after administration) was 320, the “PID score (ER)” value ([1]; breast cancer patient A, 3 weeks after administration) was 180 and the “PID score (ER)” value ([1]; breast cancer patient A, 4 weeks after administration) was 180. For the same substance, the “PID score (ER)” value ([1]; breast cancer patient B, 1 week after administration) was 440, the “PID score (ER)” value ([1]; breast cancer patient B, 2 weeks after administration) was 400 and the “PID score (ER)” value ([1]; breast cancer patient B, 3 weeks after administration) was 250. For the same substance, the “PID score (ER)” value ([1]; breast cancer patient C, 1 week after administration) was 320, the “PID score (ER)” value ([1]; breast cancer patient C, 4 weeks after administration) was 150 and the “PID score (ER)” value ([1]; breast cancer patient D, 1 week after administration) was 570. The “PID score (ER)” value ([1]; breast cancer patient D, 2 weeks after administration) was 350, the “PID score (ER)” value ([1]; breast cancer patient E, 1 week after administration) was 390 and the “PID score (ER)” value ([1]; breast cancer patient E, 2 weeks after administration) was 390. For the same substance, the “PID score (ER)” value ([1]; breast cancer patient E, 3 weeks after administration) was 390, the “PID score (ER)” value ([1]; breast cancer patient E, 4 weeks after administration) was 350 and the size of tumor [2] was “reduced”.
